Test results from ChEMBL document CHEMBL1132002, “Interaction of tyrosyl aryl dipeptides with S. aureus tyrosyl tRNA synthetase: inhibition and crystal structure of a complex” (Bioorg Med Chem Lett, 1999).

Test system: Tyrosine--tRNA ligase (Staphylococcus aureus)
Experiment: Compound was tested for inhibition of Staphylococcus aureus tyrosyl tRNA Synthetase; NI=No inhibition

Question: `N[C@@H](Cc1ccc(O)cc1)C(=O)N[C@@H](Cc1ccccc1)C(=O)O` was tested. Which IC50 did it give?
Answer: No inhibition
